Data from publication PMC7822067, “Pyridinium-2-carbaldoximes with quinolinium carboxamide moiety are simultaneous reactivators of acetylcholinesterase and butyrylcholinesterase inhibited by nerve agent surrogates” (2021).

Sequences of proteins named here, by UniProt entry; tags and fusion partners are left off. Residues count along the entry.
UniProt P06276, 29-602 limits assumed: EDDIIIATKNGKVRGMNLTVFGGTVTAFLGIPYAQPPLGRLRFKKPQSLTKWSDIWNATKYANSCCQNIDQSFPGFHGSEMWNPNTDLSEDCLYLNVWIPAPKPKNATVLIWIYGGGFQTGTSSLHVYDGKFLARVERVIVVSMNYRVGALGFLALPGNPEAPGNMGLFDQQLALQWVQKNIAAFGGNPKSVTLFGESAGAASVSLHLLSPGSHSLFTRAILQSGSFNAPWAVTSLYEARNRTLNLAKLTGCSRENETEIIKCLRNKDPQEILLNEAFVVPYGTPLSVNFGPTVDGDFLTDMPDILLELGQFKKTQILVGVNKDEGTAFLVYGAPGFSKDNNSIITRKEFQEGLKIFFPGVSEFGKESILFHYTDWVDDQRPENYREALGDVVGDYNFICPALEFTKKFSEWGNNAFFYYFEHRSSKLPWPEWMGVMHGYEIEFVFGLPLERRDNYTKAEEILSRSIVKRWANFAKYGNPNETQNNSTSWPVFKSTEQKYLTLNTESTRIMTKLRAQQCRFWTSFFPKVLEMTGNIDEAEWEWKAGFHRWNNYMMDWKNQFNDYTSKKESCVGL

Key:
[1] = molecular target: NIMP-hrBChE (Homo sapiens, UniProt P06276); assay: Reactivation kinetics of NIMP-hrBChE
[2] = molecular target: hrBChE inhibited by NIMP (Homo sapiens, UniProt P06276); assay: Reactivation screening of NIMP-inhibited hrBChE; conditions: 15 min
[3] = molecular target: hrBChE inhibited by NEMP (Homo sapiens, UniProt P06276); assay: Reactivation screening of NEMP-inhibited hrBChE; conditions: 15 min
[4] = molecular target: hrBChE inhibited by NEDPA (Homo sapiens, UniProt P06276); assay: Reactivation screening of NEDPA-inhibited hrBChE; conditions: 15 min

Row | Structure (SMILES) | kr2 (second-order reactivation rate constant, kr2=kr/KD) [1] [mM^–1 min^–1] | kr (first-order reactivation rate constant) [1] [min^–1] | hrBChE reactivation (%) NIMP ± SD ([2]; oxime 10 µM) [%] | hrBChE reactivation (%) NIMP ± SD ([2]; oxime 100 µM) [%] | hrBChE reactivation (%) NEMP ± SD ([3]; oxime 100 µM) [%] | hrBChE reactivation (%) NEDPA ± SD ([4]; oxime 100 µM) [%] | hrBChE reactivation (%) NEMP ± SD ([3]; oxime 10 µM) [%] | hrBChE reactivation (%) NEDPA ± SD ([4]; oxime 10 µM) [%]
1 | NC(=O)c1ccc2c(ccc[n+]2CCCCC[n+]2ccccc2C=NO)c1.[Br-].[Br-] | 8.29 | 0.044 | 22.3 ± 0.4 | 23.9 ± 0.1 | 22.2 ± 0.5 | 0.5 ± 0.1 | – | –
2 | NC(=O)c1cccc2c1ccc[n+]2CCCCC[n+]1ccccc1C=NO.[Br-].[Br-] | – | – | 3.7 ± 0.3 | 2.8 ± 0.6 | 5.8 ± 0.9 | – | 5.0 ± 0.2 | –
3 | NC(=O)c1cc2ccccc2[n+](CCCCC[n+]2ccccc2C=NO)c1.[Br-].[Br-] | – | – | 12.0 ± 1.1 | 13.6 ± 2.2 | 9.5 ± 0.2 | 6.3 ± 0.9 | 8.4 ± 0.7 | 2.8 ± 1.0
4 | NC(=O)c1ccc2ccc[n+](CCCCC[n+]3ccccc3C=NO)c2c1.[Br-].[Br-] | – | – | 3.5 ± 0.2 | 11.8 ± 0.6 | 3.5 ± 0.9 | – | 0.8 ± 0.4 | –
5 | NC(=O)c1cc[n+](CCCCC[n+]2ccccc2C=NO)c2ccccc12.[Br-].[Br-] | 13.27 | 0.170 | 24.7 ± 0.5 | 33.3 ± 0.6 | 26.5 ± 2.5 | 9.5 ± 0.1 | 23.4 ± 1.2 | –
